Laboratory results as given in patent EP4063344A1, “SALT OF 2-ADAMANTYL ACETIC ACID HAVING ANTI-VIRAL ACTIVITY, FORMULATIONS THEREOF AND USES THEREOF” (Sciamannini, Umbro, priority 2021, dated 2022).

Tested on: mice

“1-hexadecanaminium, N,N,N,trimethyl-tricyclo[3.3.1.13,7]decane-2-acetate(1:1) [salt of the invention]” was tested, and the “LD50 (oral in mice)” value was over 2000 mg/kg.
